Experimental data reported in patent US20230346893A1, “Methods and Compositions for Preventing or Minimizing Epithelial-Mesenchymal Transition” (Innovon Pharmaceuticals Inc., priority 2016, published 2023).

Test system: HK-2 cells
Test: TGF-β-induced collagen 1 mRNA expression (EMT marker) in HK-2 cells, quantitative real-time PCR
Format: cell-based, human
Settings: mixture of sodium octanoate and sodium decanoate 500 μM; with albumin and without albumin; n=3
Protocol: HSA was dissolved in PBS to obtain a concentration of 6.6% (6.6 g/100 ml), and was filtered using a 0.2 μm filter. 75 μl of sodium octanoate or sodium decanoate 10 mM was mixed with 75 μl of HSA 6.6% (without vortex), and incubated 10 min at room temperature. 100 μL of this mixture was used in the assay of Example 4 in a final volume of 1 ml (dilution 1:10).
Analysis was undertaken to determine the effect of various compositions on TGF-β-induced collagen 1 expression, which is a marker of EMT, on immortalized human proximal tubule epithelial cells (HK-2 cells). HK-2 cells were treated with TGF-β (an inducer of EMT) at a concentration of 10 ng/ml. Expression of the EMT marker collagen 1 mRNA was determined by quantitative real-time PCR.
Real-Time PCR was using human TaqMan Gene Expression Assay normalized to human GAPDH endogenous control. Reference is TGF-β1 control (RQ=1). The * and ** mean a p value of 0.05 and 0.01 respectively, compared to reference. Tested concentration of the mixture of sodium octanoate and sodium decanoate is 500 μM. The number of experiments is 3 (n=3).

In the case of “albumin: Human serum albumin (free fatty acid, naked human albumin, Sigma-Aldrich #A1887)”, the “Collagen 1a1 mRNA expression vs TGF-β1 control (FIG. 2, in words)” value is reported as “no impact on collagen expression”.
